Laboratory results from US10745400B2, “Inhibition of BMP signaling, compounds, compositions and uses thereof” (Vanderbilt University, priority 2018, dated 2020).

Experiments:
[1] = Intrinsic clearance, human
[2] = Intrinsic clearance, mouse

Row | Intrinsic Clearance Human [1] | CLint scaled [2] | Intrinsic Clearance Mouse [2] | SMILES
1 | 134.14 mL/min/kg | 47.4 mL/min/kg | 99.99 mL/min/kg | Cc1cc(-c2cnc3cc(-c4ccc(C5COCCN5)cc4)ccn23)c2cc(F)ccc2n1 (stereo not drawn) [Compound 11]
2 | 32.84 mL/min/kg |  |  | Cc1cc(-c2cnc3cc(-c4ccc(C5CNCCN5)cc4)ccn23)c2cc(F)ccc2n1 (stereo not drawn) [Compound 18]
3 | 138.78 mL/min/kg | 97.8 mL/min/kg |  | Cc1cc(-c2cnc3cc(-c4ccc(C5COCCN5)cc4)ccn23)c2ccccc2n1 (stereo not drawn) [Compound 21]
4 | 138.78 mL/min/kg | 47.7 mL/min/kg | 97.13 mL/min/kg | Cc1cc(-c2cnc3cc(-c4ccc(C5COCCN5)cc4)ccn23)c2cc(F)cc(F)c2n1 (stereo not drawn) [Compound 22]
